Our source for the relative binding affinities values is patent publication US20210265014A1, “METHOD AND ELECTRONIC SYSTEM FOR PREDICTING AT LEAST ONE FITNESS VALUE OF A PROTEIN VIA AN EXTENDED NUMERICAL SEQUENCE, RELATED COMPUTER PROGRAM PRODUCT” (PEACCEL, priority 2018, published 2021).

The test system of the test is TNFR1 and TNFR2. Put plainly: Relative affinity of TNF variants to TNFR1 versus TNFR2. Type of test: binding. As to conditions: log10(R1/R2), R1 and R2 affinities of TNF to TNFR1 and TNFR2 (relative affinity % Kd). An excerpt: The TNF dataset, disclosed in the article from Mukai Y et al. (J Mol Biol. 2009 Jan. 30; 385(4):1221-9) “Structure-function relationship of tumor necrosis factor (TNF) and its receptor interaction based on 3D structural analysis of a fully active TNFR1-selective TNF mutant”, is a collection of 20 mutants and one WT Tumour Necrosis Factor (TNF) sequences (WT sequence corresponds to SEQ ID NO: 6). TNF is an important cytokine that suppresses carcinogenesis and excludes infectious pathogens to maintain homeostasis.

Substance “WT_157aa: WT Tumour Necrosis Factor (TNF) sequence” came in with a relative binding affinities of 0.
